Paper PMC6372279 (eLife, 2019)
Like-named read-outs stand apart in the source and are kept apart here.

Protein sequences, listed by entry. Tags and fused reporters are not part of them. Residues count along the entry.
UniProt P06213, 28-758 limits assumed: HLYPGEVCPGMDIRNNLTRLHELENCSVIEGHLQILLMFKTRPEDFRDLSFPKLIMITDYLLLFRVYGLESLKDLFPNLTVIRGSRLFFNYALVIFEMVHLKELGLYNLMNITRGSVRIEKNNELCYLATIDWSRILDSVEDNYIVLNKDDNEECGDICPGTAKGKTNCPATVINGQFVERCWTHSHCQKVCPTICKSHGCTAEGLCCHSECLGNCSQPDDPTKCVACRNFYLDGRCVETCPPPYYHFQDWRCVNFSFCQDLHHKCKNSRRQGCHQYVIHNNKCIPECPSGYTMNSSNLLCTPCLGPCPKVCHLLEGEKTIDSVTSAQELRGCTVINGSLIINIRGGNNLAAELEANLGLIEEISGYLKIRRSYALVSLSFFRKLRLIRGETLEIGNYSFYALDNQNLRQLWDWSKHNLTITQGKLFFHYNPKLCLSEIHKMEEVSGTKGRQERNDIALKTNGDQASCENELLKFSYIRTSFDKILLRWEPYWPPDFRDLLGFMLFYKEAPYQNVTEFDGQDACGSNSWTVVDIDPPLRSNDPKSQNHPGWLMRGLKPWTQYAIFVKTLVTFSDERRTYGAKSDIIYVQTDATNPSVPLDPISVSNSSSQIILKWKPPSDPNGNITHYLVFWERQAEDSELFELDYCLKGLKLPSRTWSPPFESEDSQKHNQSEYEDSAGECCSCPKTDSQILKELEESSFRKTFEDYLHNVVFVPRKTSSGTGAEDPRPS
UniProt P06213, 763-1382 partner limits assumed: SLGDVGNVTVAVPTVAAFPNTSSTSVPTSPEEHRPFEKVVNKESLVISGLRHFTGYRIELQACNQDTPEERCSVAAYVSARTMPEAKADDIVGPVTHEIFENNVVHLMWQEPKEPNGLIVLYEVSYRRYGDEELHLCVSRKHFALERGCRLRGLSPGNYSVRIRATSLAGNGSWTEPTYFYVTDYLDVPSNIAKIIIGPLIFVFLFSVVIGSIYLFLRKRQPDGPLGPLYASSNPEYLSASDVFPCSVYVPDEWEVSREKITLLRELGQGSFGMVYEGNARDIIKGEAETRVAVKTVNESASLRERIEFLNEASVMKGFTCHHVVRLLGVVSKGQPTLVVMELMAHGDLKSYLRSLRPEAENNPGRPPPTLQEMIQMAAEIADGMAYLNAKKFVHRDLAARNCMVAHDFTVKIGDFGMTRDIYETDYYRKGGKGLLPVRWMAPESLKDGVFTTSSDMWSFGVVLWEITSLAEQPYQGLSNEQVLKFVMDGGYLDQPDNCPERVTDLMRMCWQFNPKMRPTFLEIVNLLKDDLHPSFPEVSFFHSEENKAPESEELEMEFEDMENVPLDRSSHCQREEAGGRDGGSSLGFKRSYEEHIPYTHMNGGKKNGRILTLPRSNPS

Experiments:
human IR-B [1] = biological target: T1, human IR-B (Homo sapiens, UniProt P06213); assay: cell-based
human IR-B [2] = biological target: T1, human IR-B; assay: cell-based; remark: listed apart in the source

## CC[C@H](C)[C@@H]1NC(=O)[C@H](CC(C(=O)O)C(=O)O)NC(=O)[C@H](CO)NC(=O)CNC(=O)[C@@H](NC(=O)[C@H](CCCNC(=N)N)NC(=O)[C@H](Cc2c[nH]cn2)NC(=O)[C@H](CCCCN)NC(=O)[C@@H]2C[C@@H](O)CN2C(=O)[C@@H](NC(=O)[C@H](CC(=O)O)NC(=O)[C@H](Cc2ccccc2)NC(=O)[C@@H](N)[C@@H](C)O)[C@@H](C)O)CSSC[C@@H]2NC(=O)[C@@H](NC(=O)[C@H](Cc3c[nH]cn3)NC(=O)[C@H](CC(C(=O)O)C(=O)O)NC(=O)[C@@H](NC(=O)[C@@H](NC(=O)CN)C(C)C)C(C)C)CSSC[C@H](NC(=O)[C@@H]3CCCN3C(=O)[C@H](CCCNC(=N)N)NC(=O)[C@H](Cc3c[nH]cn3)NC2=O)C(=O)N[C@@H](CO)C(=O)N[C@@H](CC(N)=O)C(=O)N[C@@H](C)C(=O)N[C@@H](CCC(=O)O)C(=O)N[C@@H](Cc2ccccc2)C(=O)N[C@@H](CCCCN)C(=O)N[C@@H](CCCCN)C(=O)N[C@@H](Cc2ccc(O)cc2)C(=O)N[C@H](C(N)=O)CSSC[C@@H](C(=O)N[C@@H](Cc2ccc(O)cc2)C(=O)N[C@@H](CCCNC(=N)N)C(=O)O)NC(=O)[C@H](CC(C)C)NC(=O)[C@H](CC(=O)O)NC(=O)[C@H](CCSC)NC(=O)[C@H](Cc2ccc(O)cc2)NC(=O)[C@H](CO)NC(=O)[C@H](CC(N)=O)NC(=O)[C@H]([C@@H](C)O)NC1=O [Con-Ins G1]
Human IR-B [1]
  EC50: 16.3 nM
Human IR-B [2]
  EC50: 136 nM
